Tests used:
[1] = target: cardiac sodium channel (Rattus norvegicus, UniProt P15389); test: Whole cell voltage clamp, sodium current; conditions: read-out: EC20 Sodium current reduction; concentration required to produce a 20% change; single isolated adult rat cardiac cells; in the presence of naloxone
[2] = system: potassium current; test: Whole cell voltage clamp, potassium current; conditions: read-out: EC20 potassium current blockade, isolated adult rat cardiac cells
[3] = system: guinea pig; test: Intradermal wheal assay for local anaesthesia; conditions: intradermal injection of approximately 0.1 ml; absence of flinch upon pin prick
[4] = system: pentobarbital anaesthetized rats; test: Blood pressure, heart rate and EKG effects before coronary artery occlusion; assay type: in vivo, rat; conditions: for ED20 EKG P-R interval increase / ED20 EKG Q-T interval increase / ED20 EKG QRS interval increase: dose required to produce a 20% change, anaesthetized rats; for time to maximum electrophysiological effect: effects occur very rapidly
[5] = system: pentobarbital anaesthetized rats subject to coronary artery occlusion; test: Antiarrhythmic efficacy against coronary artery occlusion induced arrhythmias; assay type: in vivo, rat; conditions: control value 88%, initial results

Protein sequences, listed by entry. Tags and fused reporters are not part of them.
UniProt P15389, whole entry, looked up: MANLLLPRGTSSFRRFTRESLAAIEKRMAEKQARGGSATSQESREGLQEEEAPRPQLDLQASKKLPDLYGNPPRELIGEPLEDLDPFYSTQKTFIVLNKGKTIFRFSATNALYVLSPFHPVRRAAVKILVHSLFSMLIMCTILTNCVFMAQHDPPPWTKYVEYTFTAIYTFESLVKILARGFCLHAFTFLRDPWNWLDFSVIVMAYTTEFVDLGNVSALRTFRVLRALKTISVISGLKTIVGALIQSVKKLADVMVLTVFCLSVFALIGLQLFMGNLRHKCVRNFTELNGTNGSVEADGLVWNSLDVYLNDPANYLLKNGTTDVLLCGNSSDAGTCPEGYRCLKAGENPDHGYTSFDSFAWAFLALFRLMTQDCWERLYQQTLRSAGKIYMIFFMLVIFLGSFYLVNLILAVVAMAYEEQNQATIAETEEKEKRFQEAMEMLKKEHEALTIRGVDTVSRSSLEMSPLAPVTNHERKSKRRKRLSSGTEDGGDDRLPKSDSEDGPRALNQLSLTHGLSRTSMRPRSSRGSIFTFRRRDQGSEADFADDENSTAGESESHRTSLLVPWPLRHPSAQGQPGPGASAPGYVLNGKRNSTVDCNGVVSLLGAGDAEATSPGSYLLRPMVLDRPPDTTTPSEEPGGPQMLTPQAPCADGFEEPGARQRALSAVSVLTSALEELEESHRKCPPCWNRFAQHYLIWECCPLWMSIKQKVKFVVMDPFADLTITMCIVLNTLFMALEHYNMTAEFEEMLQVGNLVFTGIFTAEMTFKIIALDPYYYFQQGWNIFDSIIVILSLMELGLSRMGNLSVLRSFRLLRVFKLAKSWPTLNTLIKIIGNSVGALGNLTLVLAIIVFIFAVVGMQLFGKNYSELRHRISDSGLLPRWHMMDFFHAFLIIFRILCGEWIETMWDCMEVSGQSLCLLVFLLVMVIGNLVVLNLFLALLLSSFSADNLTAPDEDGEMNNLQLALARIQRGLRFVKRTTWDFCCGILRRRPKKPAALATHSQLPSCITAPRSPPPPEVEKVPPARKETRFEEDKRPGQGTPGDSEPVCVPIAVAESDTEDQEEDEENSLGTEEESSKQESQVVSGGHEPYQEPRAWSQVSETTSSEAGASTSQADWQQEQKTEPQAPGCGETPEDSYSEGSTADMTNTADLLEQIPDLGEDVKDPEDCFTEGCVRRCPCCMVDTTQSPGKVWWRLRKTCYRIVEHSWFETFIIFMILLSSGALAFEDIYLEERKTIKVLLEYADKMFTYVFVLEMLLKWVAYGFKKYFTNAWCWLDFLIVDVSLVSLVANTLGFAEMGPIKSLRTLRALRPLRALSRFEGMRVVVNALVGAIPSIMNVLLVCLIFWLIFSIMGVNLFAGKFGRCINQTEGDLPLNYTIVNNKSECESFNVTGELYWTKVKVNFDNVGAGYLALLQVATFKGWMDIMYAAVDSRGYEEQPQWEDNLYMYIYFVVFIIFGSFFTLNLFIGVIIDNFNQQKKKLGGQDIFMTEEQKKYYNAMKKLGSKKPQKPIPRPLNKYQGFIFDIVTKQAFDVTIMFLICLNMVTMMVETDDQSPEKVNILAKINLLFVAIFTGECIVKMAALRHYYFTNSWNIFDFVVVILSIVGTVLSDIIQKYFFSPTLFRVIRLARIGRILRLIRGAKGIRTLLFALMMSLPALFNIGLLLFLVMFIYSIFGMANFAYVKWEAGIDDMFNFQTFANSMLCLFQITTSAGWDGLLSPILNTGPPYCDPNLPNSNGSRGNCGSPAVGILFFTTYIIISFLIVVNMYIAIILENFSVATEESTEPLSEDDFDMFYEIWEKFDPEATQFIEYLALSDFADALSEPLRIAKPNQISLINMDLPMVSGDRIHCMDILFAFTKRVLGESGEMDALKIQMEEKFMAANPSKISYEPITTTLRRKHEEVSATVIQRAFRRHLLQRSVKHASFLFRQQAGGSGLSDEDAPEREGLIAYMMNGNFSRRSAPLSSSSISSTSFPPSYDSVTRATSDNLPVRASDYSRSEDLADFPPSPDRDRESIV

Row | SMILES | IC20 [1] [µM] | ED20 local anaesthesia [3] | ED20 EKG P-R interval increase [4] [µmol/kg] | ED20 EKG Q-T interval increase [4] [µmol/kg] | ED20 EKG QRS interval increase [4] [µmol/kg] | also measured
1 | CN(C(=O)Cc1cccc2sccc12)[C@@H]1CCCC[C@H]1N1CCCC1 (racemic) | 4 | 0.3 percent (g/100 ml) | – | – | – | IC20 [2]: 100 µM
2 | CN(C(=O)Cc1cccc2occc12)[C@@H]1CCC2(CCCO2)C[C@H]1N1CCCC1 (mixture of isomers) | 13 | – | – | – | – | –
3 | CN(C(=O)Cc1cccc2occc12)[C@@H]1CC[C@]2(CCCO2)C[C@H]1N1CCCC1 | – | – | 10 | 32 | >32 | time to maximum electrophysiological effect [4]: one circulation time
4 | CN(C(=O)Cc1csc2ccccc12)[C@@H]1CCCC[C@H]1N1CCCC1 (racemic) | 4 | – | – | – | – | –
5 | CN(C(=O)Cc1cccc2occc12)[C@H]1CC[C@@]2(CCCO2)C[C@@H]1N1CCCC1 | 10 | 0.5 percent (g/100 ml) | 16 | >32 | >32 | incidents of fatal arrhythmias (VF) ([5]; 2 µmol/kg): 25%; incidents of fatal arrhythmias (VF) ([5]; 8 µmol/kg): 0%; time to maximum electrophysiological effect [4]: one circulation time
6 | CN(C(=O)Cc1cccc2sccc12)[C@@H]1CCCC[C@H]1N1CCCC1 | 2 | – | – | – | – | –
7 | CN(C(=O)Cc1ccc(Cl)c(Cl)c1)[C@@H]1CCCC[C@H]1N1CCCC1 (relative stereo) | – | > 0.5 percent (g/100 ml) | 16 | 32 | 32 | –
